The values that follow are results of earlier work, collected in patent US20150148304A1, “Novel Peptides and Analogs for Use in the Treatment of Macrophage Activation Syndrome” (Soligenix, Inc., priority 2013, published 2015).

For the series the following is noted: oral administration; cited from earlier work.

With `Oc1ccc2c3c1O[C@H]1[C@H](O)CC[C@@]4(O)[C@@H](C2)N(CC2CC2)CC[C@]314` [6-β-naltrexol], the “time of peak plasma levels after dosing” value was “one”.
